Earlier results on 1 compound are cited in US20090317456A1, “USE OF ONCOLYTIC VIRUSES AND ANTIANGIOGENIC AGENTS IN THE TREATMENT OF CANCER” (priority 2006, published 2009).

Amino acid sequences for entries named in this document (tags omitted). Residues count along the entry.
UniProt P10721, 26-976: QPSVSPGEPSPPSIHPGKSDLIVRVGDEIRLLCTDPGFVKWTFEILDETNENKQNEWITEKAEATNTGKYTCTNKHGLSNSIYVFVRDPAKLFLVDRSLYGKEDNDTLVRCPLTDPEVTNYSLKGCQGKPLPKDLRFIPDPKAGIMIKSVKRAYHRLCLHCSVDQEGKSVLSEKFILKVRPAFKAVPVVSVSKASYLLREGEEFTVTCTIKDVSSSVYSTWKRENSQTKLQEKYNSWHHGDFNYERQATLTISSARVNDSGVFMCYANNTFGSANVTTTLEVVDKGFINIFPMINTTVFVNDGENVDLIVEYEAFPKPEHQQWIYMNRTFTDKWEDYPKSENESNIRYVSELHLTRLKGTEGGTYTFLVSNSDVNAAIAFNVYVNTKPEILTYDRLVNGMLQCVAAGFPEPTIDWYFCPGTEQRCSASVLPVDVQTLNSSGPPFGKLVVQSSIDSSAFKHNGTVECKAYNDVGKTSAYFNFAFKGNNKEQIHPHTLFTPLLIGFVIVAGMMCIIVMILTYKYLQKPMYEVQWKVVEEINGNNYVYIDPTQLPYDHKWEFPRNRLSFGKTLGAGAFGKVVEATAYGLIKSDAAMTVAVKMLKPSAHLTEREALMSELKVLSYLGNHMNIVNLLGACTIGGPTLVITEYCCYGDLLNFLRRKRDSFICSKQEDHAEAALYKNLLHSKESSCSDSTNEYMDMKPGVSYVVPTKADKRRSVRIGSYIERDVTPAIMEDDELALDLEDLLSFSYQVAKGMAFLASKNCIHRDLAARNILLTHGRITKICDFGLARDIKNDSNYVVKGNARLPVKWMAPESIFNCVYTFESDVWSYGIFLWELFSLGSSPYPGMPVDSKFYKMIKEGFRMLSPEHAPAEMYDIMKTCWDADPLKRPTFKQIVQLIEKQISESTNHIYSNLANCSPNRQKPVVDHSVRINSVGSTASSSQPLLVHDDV

In this data set the target is c-kit (Homo sapiens, UniProt P10721).

As for `Clc1ccc(Nc2nnc(Cc3ccncc3)c3ccccc23)cc1` [PTK 787/ZK 222584], the inhibition of c-kit entry is “nanomolar range”.
